Experiments:
human CD40 = human CD40 (human, UniProt P25942); assay: cell-based or functional assay
[1] = target: T1, human type I IFN receptor on HEK-Blue IFN-α/β cells (human, UniProt P17181 28-557; P48551 27-515); assay: cell-based or functional assay
T1 sequence (looked up) 1: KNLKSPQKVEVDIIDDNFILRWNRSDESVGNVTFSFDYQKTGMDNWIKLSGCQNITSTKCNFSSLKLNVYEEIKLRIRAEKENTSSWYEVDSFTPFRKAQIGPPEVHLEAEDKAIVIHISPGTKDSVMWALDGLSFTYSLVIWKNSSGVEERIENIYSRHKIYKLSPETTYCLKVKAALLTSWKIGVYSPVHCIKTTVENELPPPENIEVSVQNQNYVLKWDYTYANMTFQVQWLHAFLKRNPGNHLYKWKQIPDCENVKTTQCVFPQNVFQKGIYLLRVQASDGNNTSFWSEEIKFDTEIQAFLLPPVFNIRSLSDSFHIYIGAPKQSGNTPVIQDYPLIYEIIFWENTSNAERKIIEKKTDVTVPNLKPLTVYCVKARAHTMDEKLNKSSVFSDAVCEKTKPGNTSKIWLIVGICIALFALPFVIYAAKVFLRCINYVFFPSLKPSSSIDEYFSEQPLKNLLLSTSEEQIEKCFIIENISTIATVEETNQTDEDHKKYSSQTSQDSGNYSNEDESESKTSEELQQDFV
T1 sequence (looked up) 2: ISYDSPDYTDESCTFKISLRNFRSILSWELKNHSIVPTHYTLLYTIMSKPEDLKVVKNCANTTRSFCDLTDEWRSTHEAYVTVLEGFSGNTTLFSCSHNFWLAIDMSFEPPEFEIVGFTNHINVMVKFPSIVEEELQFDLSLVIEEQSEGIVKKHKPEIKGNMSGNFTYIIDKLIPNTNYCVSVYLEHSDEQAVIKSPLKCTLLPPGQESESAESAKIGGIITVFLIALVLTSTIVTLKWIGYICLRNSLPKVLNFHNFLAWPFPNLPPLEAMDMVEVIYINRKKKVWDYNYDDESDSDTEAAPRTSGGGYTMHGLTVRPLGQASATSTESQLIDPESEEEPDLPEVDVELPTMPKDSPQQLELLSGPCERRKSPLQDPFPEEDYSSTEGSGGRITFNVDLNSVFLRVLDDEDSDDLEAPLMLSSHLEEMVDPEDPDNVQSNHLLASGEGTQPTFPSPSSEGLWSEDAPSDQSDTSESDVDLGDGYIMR

Amino acid sequences for entries named in this document (tags omitted). Residues count along the entry.
UniProt P25942, 21-277: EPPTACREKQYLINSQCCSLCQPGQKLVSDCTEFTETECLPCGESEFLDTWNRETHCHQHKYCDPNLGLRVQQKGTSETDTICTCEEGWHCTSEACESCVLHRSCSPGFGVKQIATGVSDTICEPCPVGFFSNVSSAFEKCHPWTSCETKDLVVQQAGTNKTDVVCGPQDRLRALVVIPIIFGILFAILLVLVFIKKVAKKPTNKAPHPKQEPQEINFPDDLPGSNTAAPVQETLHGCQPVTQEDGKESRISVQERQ

B1: IFA46 (antibody, human IgG2, kappa)
light: DIQMTQSPSSVSASVGDRVTITCRASQGIYSWLAWYQQKPGKAPNLLIYTASTLQSGVPSRFSGSGSGTDFTLTISSLQPEDFATYYCQQANIFPLTFGGGTKVEIKRTVAAPSVFIFPPSDEQLKSGTASVVCLLNNFYPREAKVQWKVDNALQSGNSQESVTEQDSKDSTYSLSSTLTLSKADYEKHKVYACEVTHQGLSSPVTKSFNRGECGGGGSGGGGSGGGGSGGGGS[letters of about 150 residues left out]
heavy: QVQLVQSGAEVKKPGASVKVSCKASGYTFTGYYMHWVRQAPGQGLEWMGWINPDSGGTNYAQKFQGRVTMTRDTSISTAYMELNRLRSDDTAVYYCARDQPLGYCTNGVCSYFDYWGQGTLVTVSSASTKGPSVFPLAPCSRSTSESTAALGCLVKDYFPEPVTVSWNSGALTSGVHTFPAVLQSSGLYSLSSVVTVPSSNFGTQTYTCNVDHKPSNTKVDKTVERKCCVECPPCPAPPVAGPSVFLFPPKPKDTLMISRTPEVTCVVVDVSHEDPEVQFNWYVDGVEVHNAKTKPREEQFNSTFRVVSVLTVVHQDWLNGKEYKCKVSNKGLPAPIEKTISKTKGQPREPQVYTLPPSREEMTKNQVSLTCLVKGFYPSDIAVEWESNGQPENNYKTTPPMLDSDGSFFLYSKLTVDKSRWQQGNVFSCSVMHEALHNHYTQKSLSLSPGK
- CD40 EC50 (HEK-Blue CD40L NFκB-SEAP reporter cells) (human CD40): 0.0863 µg/mL
- IFNω EC50 (HEK-Blue IFN-α/β SEAP reporter cells) [1]: 0.000493 µg/mL
